Reference: patent US20110015274A1, “FORM OF AN […] DERIVATIVE” (priority 2009, published 2011)

Experiments:
[1] = mesylate; for CI (Compressibility Index or Carr Index): 100×[(ρtapped−ρbulk)/ρtapped]; for HR (Hausner ratio): tapped density divided by bulk density
[2] = heating at 80° C. for 72, 96 or 144 hours, and refluxing in isopropanol for 30 hours; cited from earlier work

SMILES	CI (Compressibility Index or Carr Index) [1]	HR (Hausner ratio) [1]	Chemical stability [2]
C#CCN[C@@H]1CCc2ccccc21.CS(=O)(=O)O [Reference Example 2, R-(+)-N-propargyl-1-aminoindan mesylate, reference compound]	40	1.67	–
C#CCN[C@@H]1CCc2ccccc21.CS(=O)(=O)O [Reference Example 1, R-(+)-N-propargyl-1-aminoindan mesylate, reference compound]	42	1.72	–
C#CCN[C@@H]1CCc2ccccc21.CS(=O)(=O)O [Example 1, R-(+)-N-propargyl-1-aminoindan mesylate]	30	1.43	–
C#CCN[C@@H]1CCc2ccccc21.CS(=O)(=O)O [Example 3, R-(+)-N-propargyl-1-aminoindan mesylate]	26	1.35	–
C#CCN[C@@H]1CCc2ccccc21.CS(=O)(=O)O [Example 2, R-(+)-N-propargyl-1-aminoindan mesylate]	29	1.41	–
C#CCN[C@@H]1CCc2ccccc21.CS(=O)(=O)O [Example 4, R-(+)-N-propargyl-1-aminoindan mesylate]	30	1.43	–
C#CCN[C@@H]1CCc2ccccc21.CS(=O)(=O)O [rasagiline mesylate, R-(+)-N-propargyl-1-aminoindan mesylate]	–	–	excellent chemical stability
